Test results published in PubChem BioAssay AID686978 (National Center for Advancing Translational Sciences (NCATS), 2013).
Values joined by “and” are separate entries in the source; they are usually repeats but may differ in a detail not shown here. Equal entries are not always repeated. Only a part is listed here, and it is no random draw. Some tests of the compounds listed are not included; inactive here does not mean inactive elsewhere. Results filed as inconclusive are left out. Active and inactive are the calls of the source. Calls follow the shape of the dose curve; as a rule, active = well fitted inhibition curve with a large enough effect; inconclusive = small, poorly fitted or top-dose-only effect; inactive = flat fitted curve, though single readings scatter.

Experiment: qHTS for Inhibitors of human tyrosyl-DNA phosphodiesterase 1 (TDP1): qHTS in cells in absence of CPT; also: nearly all actives have a fitted effect of over 55% in size
Conditions: DT40 Tdp1-/- hTDP1 cells, no CPT, ATP luminescence, 48 h; at 46.2 µM (top of the series)
% is scaled to controls: 0 for no effect and ±100 for the full control effect.

Row | Compound | activity change, negative = growth inhibition
1 | COc1ccc(C(=O)NCC2(N(C)C)CCCCC2)cc1 | inactive: 18.9%
2 | O=C(NCC1(N2CCCCC2)CCCCC1)c1cccc(Br)c1 | inactive: -7.08%
3 | CCN1CCCC(OC(=O)C2(O)c3ccccc3C=Cc3ccccc32)C1 (configuration not stated) | inactive: -20.4%
4 | O=C(NCC1(N2CCCCC2)CCCCC1)c1cc(F)c(F)cc1Cl | inactive: -26.6%
5 | C=CCN1CCN(CCOC(=O)C(O)(c2ccccc2)c2ccccc2)CC1 | inactive: -5.76%
6 | CN1CCCC(OC(=O)C(O)(c2ccccc2)c2ccccc2)C1 (configuration not stated) | inactive: -11%
7 | CN(C)c1ccc(C(=O)NCC2(N(C)C)CCCCC2)cc1 | inactive: -1.89%
8 | Cc1ccccc1C(=O)NCC1(N2CCCCC2)CCCCC1 | inactive: 7.86%
9 | Cc1ccc(C(=O)NCC2(N3CCCCC3)CCCCC2)cc1 | inactive: -18.7%
10 | COc1cc(SC)ccc1C(=O)NCC1(N(C)C)CCCCC1 | inactive: 12.2%
11 | CCN(CC)CC(C)C(C)OC(=O)C(O)(c1ccccc1)c1ccccc1 (configuration not stated) | inactive: -14.2%
12 | CN(C)C1(CNC(=O)c2cccc(Cl)c2)CCCCC1 | inactive: -2.18%
13 | CC(C)N1C(=O)CC2(CCN(CCOC(=O)C(O)(c3ccccc3)c3ccccc3)CC2)C1=O | inactive: -11.6%
14 | CN1[C@@H]2CC[C@H]1CC(OC(=O)C(O)(c1ccccc1)c1ccccc1)C2 (some centres not stated) | inactive: -17.8%
15 | O=C(NCC1(N2CCCCC2)CCCCC1)c1cc([N+](=O)[O-])ccc1Cl | inactive: -11.2%
16 | CC(C)Oc1ccc(C(=O)NCC2(N(C)C)CCCCC2)cc1 | inactive: 6.77% and inactive: -19.7%
17 | CN(C)c1cccc(C(=O)NCC2(N(C)C)CCCCC2)c1 | inactive: -19.3%
18 | C=C(C)C#CC(O)(C(=O)OC1CCN(C)CC1)c1ccccc1 (configuration not stated) | inactive: -29.4%
19 | COc1ccc(Br)c(C(=O)NCC2(N3CCCCC3)CCCCC2)c1 | inactive: -22.5%
20 | COc1cc(C(=O)NCC2(N(C)C)CCCCC2)cc(OC)c1OC | inactive: -2.57%
21 | Cc1cccc(C(=O)NCC2(N(C)C)CCCCC2)c1 | inactive: -1.96%
22 | O=C(OC1CN2CCC1CC2)C(CO)(c1ccccc1)c1ccccc1 (configuration not stated) | inactive: -22.2%
23 | O=C(NCC1(N2CCCCC2)CCCCC1)c1cccc(Cl)c1 | inactive: -16.1%
24 | COc1ccc(Cl)cc1C(=O)NCC1(N(C)C)CCCCC1 | inactive: -1.77%
25 | COc1cccc(C(=O)NCC2(N3CCCCC3)CCCCC2)c1 | inactive: -16.1%
26 | COc1ccc(C(=O)NCC2(N(C)C)CCCCC2)cc1Cl | inactive: -15.5%
27 | COc1cc(C(=O)NCC2(N(C)C)CCCCC2)c([N+](=O)[O-])cc1OC | inactive: -17.2%
